Assay results: US20220349880

Tests used:
[1] = system: Peptide H-15: H2N-(CH2)4-CO-Pro-Leu-Ala-Phe-Val-Ala-NH-CH2-Fc
[2] = system: Peptide H-16: H2N-(CH2)4-CO-Pro-Leu-Ala-Gly-Val-Ala-NH-CH2-Fc
[3] = system: Peptide H-3: H2N-(CH2)4-CO-Pro-Leu-Arg-Phe-Gly-Ala-NH-CH2-Fc

How did the 1/τ, non-activated 5% HS in 0.5X PB spiked with 1.0 nM non-activated rhCB (0.40 nM naturally active) [1] turn out when “recombinant human cathepsin B (rhCB), non-activated (~60% 37 kDa proenzyme and ~40% 29 kDa mature enzyme)” was run?
The 1/τ, non-activated 5% HS in 0.5X PB spiked with 1.0 nM non-activated rhCB (0.40 nM naturally active) was 0.0013 s⁻¹.

“intrinsic cathepsin B in pooled human serum (HS), activated with DTT in MES (pH 5.0)” was tested. Which “cathepsin B activity (1/τ), activated 5% HS in 0.5X PB, 8 channels” value [1] did it give?
The value was “(33.2±3.0)×10^-4 s^-1”.

Which 1/τ, non-activated 5% HS in 0.5X PB (unspiked sample of the spiking study) [1] does the source give for “intrinsic cathepsin B in pooled human serum (HS), non-activated” here?
The 1/τ, non-activated 5% HS in 0.5X PB (unspiked sample of the spiking study) was 0.00121 s⁻¹.

And the cathepsin B activity (1/τ), non-activated 5% HS in 0.5X PB, 8 channels [1]?
Its cathepsin B activity (1/τ), non-activated 5% HS in 0.5X PB, 8 channels is 0.00122 s⁻¹.

What does the source list for “recombinant human cathepsin B (rhCB), activated by incubation in 25 mM MES buffer (pH 5.0) containing 5 mM DTT for 15 min”?
1/τ (inverse exponential decay time constant of the ACV peak current = protease activity), 6.0 nM cathepsin B, MES pH 5.0, channel 1 [1]: 0.00055 s⁻¹; 1/τ at saturation, activated rhCB above 1.0 nM in 0.5X PB (pH 7.4) [1]: saturated at about 45×10^-4 s^-1 when the rhCB concentration is above 1.0 nM; 1/τ, 6.0 nM cathepsin B, MES pH 5.0, average of channels 1-6 [1]: 0.000663 s⁻¹; 1/τ, 6.0 nM cathepsin B, MES pH 5.0, channel 2 [1]: 0.000734 s⁻¹; 1/τ, 6.0 nM cathepsin B, MES pH 5.0, channel 3 [1]: 0.000588 s⁻¹; 1/τ, 6.0 nM cathepsin B, MES pH 5.0, channel 4 [1]: 0.000684 s⁻¹; 1/τ, 6.0 nM cathepsin B, MES pH 5.0, channel 5 [1]: 0.000779 s⁻¹; 1/τ, 6.0 nM cathepsin B, MES pH 5.0, channel 6 [1]: 0.000645 s⁻¹; 1/τ, 6.0 nM cathepsin B, MES pH 5.0, multi-peptide MEA, average of channels 4-6 [1]: 0.000679 s⁻¹; 1/τ, 6.0 nM cathepsin B, MES pH 5.0, multi-peptide MEA, channel 4 [1]: 0.000582 s⁻¹; 1/τ, 6.0 nM cathepsin B, MES pH 5.0, multi-peptide MEA, channel 5 [1]: 0.000889 s⁻¹; 1/τ, 6.0 nM cathepsin B, MES pH 5.0, multi-peptide MEA, channel 6 [1]: 0.000566 s⁻¹; 1/τ, non-activated 5% HS in 0.5X PB spiked with 1.0 nM activated rhCB [1]: (68.4±7.53)×10^-4 s^31 1; average activity (1/τ), 1.0 nM activated cathepsin B in 25 mM MES buffer (pH 5.0) [1]: (1.21±0.46)×10^-4 s^-1; average measured activity (1/τ), 1.0 nM activated cathepsin B in 0.5X PB (pH 7.4), 8 channels [1]: (42.1±3.7)×10^-4 s^-1; inverse decay constant (1/τ), 1.0 nM activated cathepsin B in 0.2X PBS (pH 7.4) [1]: (7.65±0.42)×10^-4 s^-1; inverse decay constant (1/τ), 1.0 nM activated cathepsin B in 0.5X PBS (pH 7.4) [1]: (11.44±0.64)×10^-4 s^-1; inverse decay constant (1/τ), 1.0 nM activated cathepsin B in 1X PBS (pH 7.4) [1]: (4.2±1.1)×10^-4 s^-1; specificity constant kcat/KM (slope of 1/τ against [rhCB], 0 to 1.0 nM, 0.5X PB pH 7.4) [1]: kcat/KM=(3.89±0.28)×10^6 M^-1s^-1; 1/τ, 6.0 nM cathepsin B, MES pH 5.0, multi-peptide MEA, average of channels 1-3 [2]: 0.00089 s⁻¹; 1/τ, 6.0 nM cathepsin B, MES pH 5.0, multi-peptide MEA, channel 1 [2]: 0.000783 s⁻¹; 1/τ, 6.0 nM cathepsin B, MES pH 5.0, multi-peptide MEA, channel 2 [2]: 0.000888 s⁻¹; 1/τ, 6.0 nM cathepsin B, MES pH 5.0, multi-peptide MEA, channel 3 [2]: 0.001 s⁻¹; 1/τ, 6.0 nM cathepsin B, MES pH 5.0, multi-peptide MEA, average of channels 7-9 [3]: 0.000736 s⁻¹; 1/τ, 6.0 nM cathepsin B, MES pH 5.0, multi-peptide MEA, channel 7 [3]: 0.000734 s⁻¹; 1/τ, 6.0 nM cathepsin B, MES pH 5.0, multi-peptide MEA, channel 8 [3]: 0.000826 s⁻¹; 1/τ, 6.0 nM cathepsin B, MES pH 5.0, multi-peptide MEA, channel 9 [3]: 0.000648 s⁻¹
